As usually defined, the IC50 is the point on the concentration scale where inhibition reaches its midpoint.

Chains of the proteins cited; added tags and fusions are not shown. Lines headed by an entry give the natural chain unless they say otherwise; changes in a name come on top.
UniProt O88867: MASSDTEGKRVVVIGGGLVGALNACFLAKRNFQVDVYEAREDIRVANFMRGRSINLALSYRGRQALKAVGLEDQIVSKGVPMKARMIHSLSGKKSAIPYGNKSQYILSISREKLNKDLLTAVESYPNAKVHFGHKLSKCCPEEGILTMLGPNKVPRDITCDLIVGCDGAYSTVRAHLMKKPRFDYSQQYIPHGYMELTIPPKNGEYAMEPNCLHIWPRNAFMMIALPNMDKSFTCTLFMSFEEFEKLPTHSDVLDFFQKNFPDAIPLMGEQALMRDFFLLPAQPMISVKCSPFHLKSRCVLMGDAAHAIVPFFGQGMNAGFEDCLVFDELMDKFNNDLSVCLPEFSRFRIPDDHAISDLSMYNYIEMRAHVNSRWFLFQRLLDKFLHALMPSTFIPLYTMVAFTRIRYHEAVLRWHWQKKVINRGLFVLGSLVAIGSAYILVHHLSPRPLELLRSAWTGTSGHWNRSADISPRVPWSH

IC50 data for five compounds are collected here from ChEMBL document CHEMBL1130635, “4-Phenyl-4-oxo-butanoic acid derivatives inhibitors of kynurenine 3-hydroxylase” (Bioorg Med Chem Lett, 1998).

For test [1], the target named is T1, Kynurenine 3-monooxygenase (Rattus norvegicus, UniProt O88867). Nature of the test: Inhibition of rat brain KYN 3-OHase.
Test [2] concerns the target T1, Kynurenine 3-monooxygenase. Nature of the test: Inhibition of rat liver KYN 3-OHase.

Turning to `COC(CC(=O)c1ccc(Cl)c(Cl)c1)C(=O)O` (stereo not given), the results for the IC50 in test [1] and in test [2] were 1.2 µM and 6.9 µM, respectively.

As to `O=C(CC(O)C(=O)O)c1ccc(F)c(F)c1` (stereo not given), the IC50 was determined as 1.45 µM in test [1] and 3 µM in test [2].

For the compound `O=C(CC(O)C(=O)O)c1cccc(F)c1` (stereo not given), the IC50 in test [1] was 5.6 µM; in test [2], 9.1 µM.

As for `O=C(CC(O)C(=O)O)c1cccc([N+](=O)[O-])c1` (stereo not given), the IC50 in test [1] came to 1.95 µM; in test [2] it was 11.5 µM.

For the compound `CC(CC(=O)c1ccc(Cl)c(Cl)c1)C(=O)O` (stereo not given), the IC50 in test [1] was determined as 3.5 µM; in test [2], 6.9 µM.
